Laboratory results from patent publication US20110045982A1, “HERBICIDAL COMPOSITION” (NOF CORPORATION, priority 2009, published 2011).

Tested on: Japanese white rabbits
Settings: hydrolysate of base compound, 50% in purified water, 0.1 mL instilled, three male rabbits; observed 1, 6, 12 and 24 hr
Procedure: Assuming that the base compound is hydrolyzed in the natural world, the biological reaction of hydrolysate was evaluated by eye irritancy. To be specific, the base compound (10 g) shown in Table 1 was added to 100 mL of water, and the mixture was adjusted to pH 10 with an aqueous sodium hydroxide solution. The mixture was placed in a flask, heated to 80° C., and stirred for 1 hr while adding an aqueous sodium hydroxide solution as appropriate every 10 min to maintain pH 10. The mixture was adjusted to pH 3.5 with an aqueous hydrochloric acid solution, and the mixture was washed 3 times with hexane to remove fatty acid. The solution was neutralized with an aqueous sodium hydroxide solution, evaporated and filtered to remove sodium chloride. The viscous liquid was diluted with purified water to a concentration of 50% and used as an eye irritancy measurement sample.
Using three male Japanese white rabbits per sample, the above-mentioned eye irritancy measurement sample (0.1 mL) was instilled into the unilateral intracapsular conjunctiva of each test animal, and the upper and lower eyelids were gently closed and maintained for about 1 sec. The other eye was used as control without treatment. After instillation, the cornea, iris, conjunctiva and the like were observed 1, 6, 12 and 24 hr later.

Row | Substance | eye irritancy of hydrolysate
1 | Glycerol dicaprylic acid ester [Ex. 2] | no problem
2 | Glycerol monocapric acid ester [Ex. 6] | no problem
3 | Glycerol monocaproic acid ester [Ex. 5] | no problem
4 | Glycerol monocaprylic acid ester [Ex. 4] | no problem
5 | Glycerol sesquicaprylic acid ester [Ex. 3] | no problem
